Data published in PubChem BioAssay AID1422 (Emory University Molecular Libraries Screening Center, 2008).
The entries are a selection whose mix differs from that of the whole data set. Some salts or complexes appear as unconnected parts, following the source record. The source made the active and inactive calls.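 How the source made its calls: active means percent inhibition above 40 after rounding to a whole number; inactive means the rest.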

Sequences of proteins named here, by UniProt entry; tags and fusion partners are left off.
UniProt P43116, whole entry: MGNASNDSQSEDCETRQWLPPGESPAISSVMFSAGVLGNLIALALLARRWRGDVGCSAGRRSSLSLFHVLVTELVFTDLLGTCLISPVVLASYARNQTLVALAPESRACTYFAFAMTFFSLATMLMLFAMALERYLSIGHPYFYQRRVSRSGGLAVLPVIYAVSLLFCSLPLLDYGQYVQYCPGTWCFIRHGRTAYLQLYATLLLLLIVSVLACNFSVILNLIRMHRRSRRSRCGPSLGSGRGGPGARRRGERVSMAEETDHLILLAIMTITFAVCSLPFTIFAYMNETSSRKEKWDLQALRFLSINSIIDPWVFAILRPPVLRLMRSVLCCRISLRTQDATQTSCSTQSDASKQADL

target: Prostaglandin E2 receptor EP2 subtype (Homo sapiens) (UniProt P43116); test: blockers of PGE2-driven EP2 cAMP signalling – TR-FRET cAMP, C6 glioma cells, primary screen (AID 1422); conditions: C6 glioma cells expressing human EP2, cAMP TR-FRET; at 25 µM; hits give high values; cells stimulated with saturating PGE2;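 further: rat C6 glioma host cells with rolipram phosphodiesterase inhibitor present; the protocol text gives 20 µM as final concentration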

Row | SMILES | inhibition
1 | CN1CC[C@@H](OC(=O)[C@](O)(c2ccccc2)C2CCCC2)C1 | inactive: 13.1%
2 | CP(=O)(Nc1ccccc1F)Oc1ccccc1 (stereo not drawn) | inactive: 7.78%
3 | CC(C)c1ccc(OP(C)(=O)Nc2ccc(SC(F)(F)F)cc2)cc1 (stereo not drawn) | inactive: 3.53%
4 | O=C(OC1CN2CCC1CC2)c1ccc([N+](=O)[O-])cc1 (stereo not drawn) | inactive: 6.81%
5 | O=C(OCCN1CCN(CCOCc2ccccc2)CC1)C(O)(c1ccccc1)c1ccccc1 | inactive: 10.9%
6 | COc1ccc2c(c1O)-c1c(O)c(OC)cc3c1[C@H](C2)[N+](C)(C)CC3.O=[N+]([O-])c1cc([N+](=O)[O-])c([O-])c([N+](=O)[O-])c1[O-] | inactive: 16.7%
7 | CCOC(=O)c1ccc(NP(C)(=O)Oc2ccc(F)cc2)cc1 (stereo not drawn) | inactive: 10%
8 | COc1ccc(OP(C)(=O)Nc2ccc(SC(F)(F)F)cc2)cc1 (stereo not drawn) | inactive: 6.78%
9 | CCN(CC)CCCOC(=O)C(O)(c1ccccc1)C1CCCCC1 (stereo not drawn) | inactive: 11.5%
10 | CP(=O)(Nc1ccccc1)Oc1ccc(F)cc1 (stereo not drawn) | inactive: 7.22%
11 | CCCCCOc1ccc(NP(C)(=O)Oc2ccc(Cl)cc2Cl)cc1 (stereo not drawn) | inactive: 5.56%
12 | COc1ccc(OP(C)(=O)Nc2cccc(Br)c2)cc1 (stereo not drawn) | inactive: 13.1%
13 | CN(C)CCOC(=O)C(O)(c1ccccc1)C1CCCCC1 (stereo not drawn) | inactive: 5.3%
14 | COc1ccc(NP(C)(=O)Oc2ccccc2OC)cc1 (stereo not drawn) | inactive: 5.21%
15 | O=[N+]([O-])c1ccc(OP2(=O)COCCO2)cc1 (stereo not drawn) | inactive: 3.1%
16 | O=[N+]([O-])c1cc([N+](=O)[O-])c(NCC2CCS(=O)(=O)C2)c([N+](=O)[O-])c1 (stereo not drawn) | inactive: 5.87%
17 | Cc1cc(-c2cccc3ccccc23)c(C)cn1.O=[N+]([O-])c1cc([N+](=O)[O-])c(O)c([N+](=O)[O-])c1 | inactive: 6.94%
18 | CP(=O)(Nc1ccc(SC(F)(F)F)cc1)Oc1ccc(F)cc1 (stereo not drawn) | inactive: 7.67%
19 | CCOP(C)(=S)SCC(=O)NC(C)(CC)C(=O)O (stereo not drawn) | inactive: 9.02%
20 | CP(=O)(Nc1ccc2c(c1)OCCO2)Oc1ccccc1 (stereo not drawn) | inactive: 9.48%
21 | Cc1ccccc1NP(C)(=O)Nc1ccccc1C | inactive: 6.72%

Row | SMILES | inhibition
22 | NNC(NN)NN.n1nc(-c2nn[nH]n2)n[nH]1 | inactive: 12.1%
23 | CCN(CC)CC(O)COC(=O)C(O)(c1ccccc1)C1CCCCC1 (stereo not drawn) | inactive: 6.64%
24 | COc1ccc(OP(C)(=O)Nc2ccc(Br)cc2)cc1 (stereo not drawn) | inactive: 4.69%
25 | N#[O+].[C-]#N.[C-]#N.[C-]#N.[C-]#N.[C-]#N.[Fe+2].[Na+].[Na+] | inactive: 11.3%
26 | COc1ccccc1OP(C)(=O)Nc1c(C)n(C)n(-c2ccccc2)c1=O (stereo not drawn) | inactive: 9.76%
27 | O=C(OCCCN1CCCC1)C(O)(c1ccccc1)C1CCCCC1 (stereo not drawn) | inactive: 5.46%
28 | OCCSCCO | inactive: 11.7%
29 | CP(=O)(Oc1ccccc1)N1CCOC1=O (stereo not drawn) | inactive: 25.8%
30 | CCc1ccc(OP(C)(=O)Nc2cccnc2)cc1 (stereo not drawn) | inactive: 6.82%
31 | CC(C)(C)c1ccc(OP(C)(=O)O)cc1 | inactive: 9.29%
32 | COc1ccccc1OP(C)(=O)Nc1ccccc1Br (stereo not drawn) | inactive: 3.62%
33 | CP(=O)(Nc1ccc(Cl)cc1)Oc1ccc(F)cc1 (stereo not drawn) | inactive: 21.6%
34 | CN(C)C(=O)c1c([N+](=O)[O-])cc([N+](=O)[O-])cc1[N+](=O)[O-] | inactive: 9.97%
35 | CCOC(=O)c1ccc(NP(C)(=O)Oc2ccc(Cl)cc2)cc1 (stereo not drawn) | inactive: 16.6%
36 | CP(=O)(OC12CC3CC(CC(C3)C1)C2)OC12CC3CC(CC(C3)C1)C2 | inactive: -1.59%
37 | Cc1cc(C)cc(OP(C)(=O)Nc2cccc(C(F)(F)F)c2)c1 (stereo not drawn) | inactive: 11.1%
38 | COc1ccccc1OP(C)(=O)Nc1ccc(C)c(C)c1 (stereo not drawn) | inactive: 16.5%
39 | COc1ccc(OP(C)(=O)Nc2ccccc2Br)cc1 (stereo not drawn) | inactive: 6.87%
40 | Cc1nc2ccc3ccccc3c2o1.O=[N+]([O-])c1cc([N+](=O)[O-])c(O)c([N+](=O)[O-])c1 | inactive: 3.27%
41 | CP(=O)(OCCOc1ccccc1)OCCOc1ccccc1 | inactive: 4.68%
42 | [Au].[Au].c1ccc([PH+](c2ccccc2)c2ccccc2)cc1.c1ccc([PH+](c2ccccc2)c2ccccc2)cc1.n1n[n-]c(-c2nnn[n-]2)n1 | active: 67.3%

Row | SMILES | inhibition
43 | CP(=O)(Nc1ccc(Cl)cc1Cl)Oc1ccccc1 (stereo not drawn) | inactive: -0.16%
44 | COc1ccccc1OP(C)(=O)Nc1ccc(Br)cc1 (stereo not drawn) | inactive: 4.77%
45 | COc1ccc(OP(C)(=O)Nc2ccccn2)cc1 (stereo not drawn) | inactive: 5.96%
46 | CN(C)CCOC(=O)C(O)(c1ccccc1)C1CCCC1 (stereo not drawn) | inactive: 8.51%
47 | O=[N+]([O-])c1cc([N+](=O)[O-])c(Nc2ccccn2)c([N+](=O)[O-])c1 | inactive: 9.66%
48 | Cc1c(NP(C)(=O)Oc2ccc(C(C)C)cc2)c(=O)n(-c2ccccc2)n1C (stereo not drawn) | inactive: 9.91%
49 | CP(=O)(Nc1ccccn1)Oc1ccccc1 (stereo not drawn) | inactive: 6.73%
50 | COc1ccccc1OP(C)(=O)Nc1ccc(C)cc1C (stereo not drawn) | inactive: 8.9%
51 | CCc1ccc(OP(C)(=O)O)cc1 | inactive: 7.59%
52 | CCN(CC)CCCOC(=O)C(O)(c1ccccc1)c1ccccc1 | inactive: 6.93%
53 | O=[N+]([O-])c1ccc2c(c1)C=Nc1ccccc1O2 | inactive: 2.67%
54 | CC(C)(C)c1ccc(OP(C)(=O)Nc2ccc(SC(F)(F)F)cc2)cc1 (stereo not drawn) | inactive: 6.39%
55 | Cc1cccc(C)c1OP(C)(N)=O (stereo not drawn) | inactive: 5.44%
56 | COc1ccccc1OP(C)(=O)Nc1ccc(C)cc1 (stereo not drawn) | inactive: 15.1%
57 | CCOC(=O)c1ccc(NP(C)(=O)Oc2ccccc2)cc1 (stereo not drawn) | inactive: 15.2%
58 | Cc1cc(C)cc(OP(C)(N)=O)c1 (stereo not drawn) | inactive: -0.21%
59 | COc1ccccc1OP(C)(=O)Nc1cc(Cl)ccc1C (stereo not drawn) | inactive: 11.3%
60 | N1=C(c2nnc(-c3nn[nH]n3)nn2)NNN1 | inactive: 16%
61 | CP(=S)(Nn1cnnc1)Oc1ccccc1 (stereo not drawn) | inactive: 12.2%
62 | CP(=O)(Nc1ccccc1Br)Oc1ccccc1 (stereo not drawn) | inactive: 14.4%
63 | COc1ccccc1OP(C)(=O)Nc1ccccc1 (stereo not drawn) | inactive: 7.69%
